From PMC11840601, “Single Amino Acid Changes Impact the Ability of Drosophila melanogaster Cecropins to Inhibit Growth of Providencia Pathogens” (ACS Omega, 2025)

Assays:
[1] = test system: P. burhodogranarieaB; type: cell-based, Providencia burhodogranarieaB; conditions: broth microdilution, 96-well, Mueller Hinton broth, 25 °C, 16 h, OD600, peptide 64-1 or 128-2 μM
Procedure: (§1) Each cecropin was tested for its ability to inhibit the growth of Providencia bacterial species, strains that were previously isolated from D. melanogaster.[31] […] Therefore, we hypothesized the virulence of Providencia species may be partially due to differing susceptibility to cecropins. Experiments were conducted at 25 °C (Table 2), which is the temperature at which D. melanogaster are typically housed and likely reflects the temperature of bacterial growth in vivo as fruit flies are poikilotherms. […] Bacteria were determined to be in the log phase of growth when assays were started (Figure S3). P. burhodogranarieaB and P. burhodogranarieaD were the most susceptible to growth inhibition by all three native cecropin peptides (Table 2), which is unsurprising, given their low virulence and ability of D. melanogaster to sometimes clear infection by these bacteria.[32]P. sneebia, P. alcalifaciens, and P. rettgeri were more resistant to all three cecropins, with no growth inhibition observed against P. alcalifaciens in any condition.
(§2) For all antimicrobial testing, bacteria were cultured in order to obtain cells in their exponential growth phase. Liquid bacterial cultures were inoculated from a single bacterial colony on a streaked LB agar plate. Cultures were grown overnight in Mueller Hinton (MH) broth in an orbital shaker at 150 rpm for 16 h at 25 °C. The optical density (Absorbance600 nm) of overnight cultures were determined using a spectrophotometer (SmartSpec Plus, Bio-Rad, USA or Wireless Spectrometer (Vis), PASCO, USA). The overnight culture was then diluted to an optical density of 0.002 in M–H broth and incubated at 25 °C with shaking (150 rpm). Bacterial growth curves were determined experimentally for each bacterial species and at each temperature (Figure S4). Subcultures were grown for 5 h to ensure that each subculture was in its logarithmic growth phase and at a culture density above 0.1 Abs600 nm. After growth of the subculture for the designated time, the optical density was again measured and the bacterial culture was diluted to 0.002 Abs600 nm (∼2 × 10^6 CFU/mL) in M–H broth for use in subsequent assays.
(§3) The MIC for each peptide was determined using microdilution antimicrobial testing in 96-well plates. Peptide stocks were prepared at 1.28 mM in water and diluted to the desired concentration using M–H broth. A serial dilution was performed, with final peptide concentrations ranging from 64–1 μM or 128–2 μM on each plate. The plate was incubated on an orbital shaker (150 rpm) at 25 °C for 16 h. Growth inhibition was determined by measuring the optical density at 600 nm using a BioTek Synergy H1Microplate Reader. The MIC was determined to be the lowest concentration of peptide where there was no detectable difference in optical density when compared to wells lacking bacteria.

[2] = test system: P. burhodogranarieaD; type: cell-based, Providencia burhodogranarieaD; conditions: 25 °C; for Minimum Inhibitory Concentration: broth microdilution, 96-well, Mueller Hinton broth, 16 h, OD600, peptide 64-1 or 128-2 μM
Procedure: as §1, §2, §3

[3] = test system: P. alcalifaciens; type: cell-based, Providencia alcalifaciens; conditions: broth microdilution, 96-well, Mueller Hinton broth, 25 °C, 16 h, OD600, peptide 64-1 μM
Procedure: as §1
For all antimicrobial testing, bacteria were cultured in order to obtain cells in their exponential growth phase. […] The optical density (Absorbance600 nm) of overnight cultures were determined using a spectrophotometer (SmartSpec Plus, Bio-Rad, USA or Wireless Spectrometer (Vis), PASCO, USA). […] Bacterial growth curves were determined experimentally for each bacterial species and at each temperature (Figure S4). […] After growth of the subculture for the designated time, the optical density was again measured and the bacterial culture was diluted to 0.002 Abs600 nm (∼2 × 10^6 CFU/mL) in M–H broth for use in subsequent assays.
The MIC for each peptide was determined using microdilution antimicrobial testing in 96-well plates. […] Growth inhibition was determined by measuring the optical density at 600 nm using a BioTek Synergy H1Microplate Reader. The MIC was determined to be the lowest concentration of peptide where there was no detectable difference in optical density when compared to wells lacking bacteria.

[4] = test system: P. burhodogranarieaB; assay: Propidium iodide permeability assay by flow cytometry; type: cell-based, Providencia burhodogranarieaB
Procedure: (§4) First, to assess permeability of the bacterial cells post-treatment, we used propidium iodide (PI), a dye that fluoresces when bound to DNA but is impermeable to intact cell membranes. Cells were analyzed by flow cytometry after various concentrations of an AMP were added to a bacterial culture; increasing cell fluorescence was indicative of a loss of membrane integrity, allowing PI to access the DNA within the bacterial cell (Figure 3). […] To directly assess the ability of bacterial cells to replicate and divide post-treatment, bacterial cultures were plated at various times after the addition of AMP. […] These experiments were performed using peptide concentrations at the previously determined MIC for each peptide-bacteria pair (Table 2).
(§5) Samples were prepared containing 5 μg/mL propidium iodide (PI) in MH broth. The cells were assessed by flow cytometry using a Millipore Guava easyCyte 8 at 0, 1, 3, 5, 7, 9, 11, 13, 15, and 20 min post-treatment and were incubated at 25 °C between measurements. […] Data processing was performed using OMIQ. Briefly, gates were set based on the initial scattering profiles of cells. A threshold was determined for red fluorescence; cells above that threshold were determined to be permeable. Gates and thresholds were applied consistently to each sample.
(§6) The number of total cells dropped over time for many samples due to peptide treatment, and the number of total cells at each time-point were scaled to the number of cells at 0 min. The number of destroyed or “missing” cells was determined by calculating the number of permeable and impermeable cells present at a given time, and subtracting those values from the total number of cells at 0 min.

[5] = test system: P. burhodogranarieaD; assay: as above; type: cell-based, Providencia burhodogranarieaD
Procedure: as §4, §5, §6

[6] = test system: P. burhodogranarieaB; assay: Viability (CFU) kinetics assay; type: cell-based, Providencia burhodogranarieaB; conditions: peptide at MIC
Procedure: as §4
Bacterial cultures were treated with peptides at the experimentally determined MIC and small aliquots were removed at 0, 5, 10, 15, 20, 30- and 60 min post-treatment and diluted 100-fold in ice cold M–H broth. All zero-minute time-points were removed within 20 s of peptide being added. Diluted aliquots were then plated on M–H agar plates using a WASP II autoplate spiral plater (Microbiology International), which deposits 50 μL on each plate in a continuously decreasing concentric spiral. […]

[7] = test system: P. sneebia; type: cell-based, Providencia sneebia; conditions: broth microdilution, 96-well, Mueller Hinton broth, 25 °C, 16 h, OD600, peptide 64-1 or 128-2 μM
Procedure: as §1, §2, §3

[8] = test system: P. rettgeri; type: cell-based, Providencia rettgeri; conditions: broth microdilution, 96-well, Mueller Hinton broth, 25 °C, 16 h, OD600, peptide 64-1 or 128-2 μM
Procedure: as §1, §2, §3

[9] = test system: P. sneebia; assay: Propidium iodide permeability assay by flow cytometry; type: cell-based, Providencia sneebia
Procedure: as §4, §5, §6

[10] = 1 min after addition of peptide at the MIC, 25 °C, flow cytometry
[11] = after 20 min incubation at MIC (2 μM CecB), flow cytometry

Row | Compound | Minimum Inhibitory Concentration [1] [µM] | Minimum Inhibitory Concentration [2] [µM] | Minimum Inhibitory Concentration [3] [µM] | cells permeable to propidium iodide [4, 10] | cells permeable to propidium iodide ([4]; by 7 min, peptide at the MIC) | cells permeable to propidium iodide [5, 10] | cells permeable to propidium iodide ([5]; by 7 min, peptide at the MIC) | loss of viability (CFU) kinetics [6] | Minimum Inhibitory Concentration [7] [µM] | Minimum Inhibitory Concentration [8] [µM] | missing cells (decrease in cell count versus before peptide addition) [4, 11] | missing cells (decrease in cell count versus before peptide addition) [5, 11] [%] | cells permeable to propidium iodide [9, 10] | missing cells (decrease in cell count versus before peptide addition) ([9]; after 20 min incubation at MIC (32 μM CecB), flow cytometry) | cells permeable to propidium iodide ([9]; by 7 min, peptide at the MIC) | increase in MIC compared to CecB [2] [fold] | kinetics of membrane permeabilization compared to CecBG and CecB ([4]; peptide at MIC, over 20 min)
1 | CC[C@H](C)[C@H](NC(=O)CNC(=O)[C@H](CC(C)C)NC(=O)CNC(=O)[C@H](CCC(N)=O)NC(=O)[C@@H](NC(=O)[C@@H](NC(=O)[C@H](C)NC(=O)[C@H](CC(=O)O)NC(=O)[C@H](CCCNC(=N)N)NC(=O)[C@@H](NC(=O)[C@H](Cc1c[nH]cn1)NC(=O)[C@H](CCC(N)=O)NC(=O)CNC(=O)[C@@H](NC(=O)[C@H](CCCNC(=N)N)NC(=O)[C@H](CCC(=O)O)NC(=O)[C@@H](NC(=O)[C@H](CCCCN)NC(=O)[C@H](CCCCN)NC(=O)CNC(=O)[C@@H](NC(=O)[C@H](CCCCN)NC(=O)[C@H](CCCCN)NC(=O)[C@H](CC(C)C)NC(=O)[C@H](Cc1c[nH]c2ccccc12)NC(=O)CN)[C@@H](C)CC)[C@@H](C)CC)C(C)C)[C@@H](C)O)[C@@H](C)O)[C@@H](C)CC)C(=O)N[C@@H](C)C(=O)N[C@@H](CCC(N)=O)C(=O)N[C@@H](CCC(N)=O)C(=O)N[C@@H](C)C(=O)N[C@@H](C)C(=O)N[C@@H](CC(N)=O)C(=O)N[C@H](C(=O)N[C@@H](C)C(=O)N[C@@H](C)C(=O)N[C@H](C(=O)N[C@@H](C)C(=O)N[C@@H](CCCNC(=N)N)C(=O)NCC(N)=O)[C@@H](C)O)C(C)C [CecA] | 8 | 16 | >64 | about 5% | greater than 80% | about 5% | greater than 80% | slowest | – | – | – | – | – | – | – | – | –
2 | CC[C@H](C)[C@H](NC(=O)CNC(=O)[C@H](CC(C)C)NC(=O)[C@@H](NC(=O)[C@H](CCC(N)=O)NC(=O)[C@@H](NC(=O)[C@H](CO)NC(=O)[C@H](C)NC(=O)[C@H](CC(=O)O)NC(=O)[C@H](CCCNC(=N)N)NC(=O)[C@@H](NC(=O)[C@H](Cc1c[nH]cn1)NC(=O)[C@H](CCC(N)=O)NC(=O)CNC(=O)[C@@H](NC(=O)[C@H](CCCNC(=N)N)NC(=O)[C@H](CCC(=O)O)NC(=O)[C@@H](NC(=O)[C@H](CCCCN)NC(=O)[C@H](CCCCN)NC(=O)CNC(=O)[C@H](CC(C)C)NC(=O)[C@H](CCCCN)NC(=O)[C@H](CCCNC(=N)N)NC(=O)[C@H](CC(C)C)NC(=O)[C@H](Cc1c[nH]c2ccccc12)NC(=O)CN)[C@@H](C)CC)[C@@H](C)CC)[C@@H](C)O)[C@@H](C)CC)C(C)C)C(=O)N[C@@H](C)C(=O)N[C@@H](CCC(N)=O)C(=O)N[C@@H](CCC(N)=O)C(=O)N[C@@H](C)C(=O)N[C@@H](C)C(=O)N[C@@H](CC(N)=O)C(=O)N[C@H](C(=O)N[C@@H](C)C(=O)N[C@@H](C)C(=O)N[C@H](C(=O)N[C@@H](C)C(=O)N[C@@H](CCCNC(=N)N)C(=O)NCC(N)=O)[C@@H](C)O)C(C)C [CecB] | 2 | 2 | >64 | approximately 20% | greater than 80% | approximately 20% | greater than 80% | – | 32 | 64 | Approximately 60% | 50 | approximately 20% | almost no | greater than 80% | – | –
3 | CC[C@H](C)[C@H](NC(=O)CNC(=O)[C@H](CC(C)C)NC(=O)[C@H](CO)NC(=O)[C@H](CCC(N)=O)NC(=O)[C@@H](NC(=O)[C@H](CO)NC(=O)[C@H](C)NC(=O)[C@H](CC(=O)O)NC(=O)[C@H](CCCNC(=N)N)NC(=O)[C@@H](NC(=O)[C@H](Cc1c[nH]cn1)NC(=O)[C@H](CCC(N)=O)NC(=O)CNC(=O)[C@@H](NC(=O)[C@H](CCCNC(=N)N)NC(=O)[C@H](CCC(=O)O)NC(=O)[C@@H](NC(=O)[C@H](CCCCN)NC(=O)[C@H](CCCCN)NC(=O)CNC(=O)[C@H](CC(C)C)NC(=O)[C@H](CCCCN)NC(=O)[C@H](CCCNC(=N)N)NC(=O)[C@H](CC(C)C)NC(=O)[C@H](Cc1c[nH]c2ccccc12)NC(=O)CN)[C@@H](C)CC)[C@@H](C)CC)[C@@H](C)O)[C@@H](C)CC)C(=O)N[C@@H](C)C(=O)N[C@@H](CCC(N)=O)C(=O)N[C@@H](CCC(N)=O)C(=O)N[C@@H](C)C(=O)N[C@@H](C)C(=O)N[C@@H](CC(N)=O)C(=O)N[C@H](C(=O)N[C@@H](C)C(=O)N[C@@H](C)C(=O)N[C@H](C(=O)N[C@@H](C)C(=O)N[C@@H](CCCNC(=N)N)C(=O)NCC(N)=O)[C@@H](C)O)C(C)C [CecBS] | 4 | 16 | – | – | – | – | – | slowest | – | >128 | – | – | – | – | – | 8 | much more slowly
